Test results from patent US20030073850A1, “4-Imidazole derivatives of benzyl and restricted benzyl sulfonamides, sulfamides, ureas, carbamates, and amides and their use” (priority 1998, published 2003).

Chains of the proteins cited; added tags and fusions are not shown.
UniProt P23944, whole entry: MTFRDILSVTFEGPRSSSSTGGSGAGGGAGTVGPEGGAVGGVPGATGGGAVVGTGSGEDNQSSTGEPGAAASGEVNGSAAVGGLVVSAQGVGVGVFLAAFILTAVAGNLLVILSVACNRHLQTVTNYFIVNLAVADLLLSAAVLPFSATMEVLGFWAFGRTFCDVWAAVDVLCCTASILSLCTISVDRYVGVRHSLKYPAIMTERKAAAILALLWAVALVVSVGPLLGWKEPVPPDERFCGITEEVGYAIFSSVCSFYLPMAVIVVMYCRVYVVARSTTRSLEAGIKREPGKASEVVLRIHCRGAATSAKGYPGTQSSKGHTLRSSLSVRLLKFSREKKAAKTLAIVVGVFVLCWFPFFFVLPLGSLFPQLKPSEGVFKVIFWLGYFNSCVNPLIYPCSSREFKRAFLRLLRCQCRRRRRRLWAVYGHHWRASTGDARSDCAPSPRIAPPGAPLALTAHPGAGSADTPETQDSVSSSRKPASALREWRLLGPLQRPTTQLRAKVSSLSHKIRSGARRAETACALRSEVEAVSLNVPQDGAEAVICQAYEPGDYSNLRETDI

Target: T1, α1d (rat receptor expressed in mouse fibroblasts) (Rattus norvegicus, UniProt P23944)
T1 construct: expressed in transfected cells; host or cells: mouse fibroblasts
Assay: Radioligand binding, [3H]-prazosin, α1d
Description: For purposes of discussing a, adrenoceptor subtypes, the IUPHAR convention of using lower case letters to define molecular clones and upper case letters to indicate pharmacologically defined adrenoceptors has been followed. Compounds of formula I were evaluated in radioligand binding assays specific for α1A (rat submaxillary gland), α1b (hamster receptor expressed in mouse fibroblasts) and α1d (rat receptor expressed in mouse fibroblasts) using [^3H]-prazosin as the radioligand as described in Knepper, et al. J. Pharm.

CS(=O)(=O)Nc1cccc2c1OCCC2c1c[nH]cn1.O=C(O)/C=C\C(=O)O (single isomer, unassigned; (+)) [Example 93, (+) N-[4-(1H-imidazol-4-yl)-3,4-dihydro-2H-chromen-8-yl]methanesulfonamide Maleate]
Ki: 10 µM
